Test results taken from article PMC8623468.

What was measured:
[1] = biological target: P02792; test: SEC; apoferritin samples on Superdex 200 Increase 10/300 GL, absorbance at 280 nm; cage monomers to cage oligomers; peak areas, semiquantitative
[2] = biological target: P02792; test: SEC; ferritin samples after gold nanoparticle synthesis (FT-AuNP) on Superdex 200 Increase 10/300 GL, absorbance at 280 and 550 nm; cage monomers to cage oligomers; peak areas, semiquantitative

B1: Recombinant human L-ferritin homopolymer (protein)
chain: MSSQIRQNYSTDVEAAVNSLVNLYLQASYTYLSLGFYFDRDDVALEGVSHFFRELAEEKREGYERLLKMQNQRGGRALFQDIKKPAEDEWGKTPDAMKAAMALEKKLNQALLDLHALGSARTDPHLCDFLETHFLDEEVKLIKKMGDHLTNLHRLGGPEAGLGEYLFERLTLKHD
- oligomer fraction of the SEC peak areas [1]: 39.9%
- oligomer fraction of the SEC peak areas [2]: 25.6%
